Assays:
Format in all cases: biochemical
266 human kinases [1] = biological target: 266 human kinases (Homo sapiens, UniProt P00519, M351T); settings: Abl(M351T)(h); 100 μM
Summary of the method: (§1)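 Read-out by scintillation counting of radiolabelled, positively charged substrate bound to negatively charged filter; activity normalised to 100% control. Phosphate transferred from radiolabelled ATP.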

By UniProt entry, the sequences of proteins in these tests, tags left out. Where a name states a change or a piece, a line headed by the entry shows the natural chain unless it says otherwise.
UniProt O14920: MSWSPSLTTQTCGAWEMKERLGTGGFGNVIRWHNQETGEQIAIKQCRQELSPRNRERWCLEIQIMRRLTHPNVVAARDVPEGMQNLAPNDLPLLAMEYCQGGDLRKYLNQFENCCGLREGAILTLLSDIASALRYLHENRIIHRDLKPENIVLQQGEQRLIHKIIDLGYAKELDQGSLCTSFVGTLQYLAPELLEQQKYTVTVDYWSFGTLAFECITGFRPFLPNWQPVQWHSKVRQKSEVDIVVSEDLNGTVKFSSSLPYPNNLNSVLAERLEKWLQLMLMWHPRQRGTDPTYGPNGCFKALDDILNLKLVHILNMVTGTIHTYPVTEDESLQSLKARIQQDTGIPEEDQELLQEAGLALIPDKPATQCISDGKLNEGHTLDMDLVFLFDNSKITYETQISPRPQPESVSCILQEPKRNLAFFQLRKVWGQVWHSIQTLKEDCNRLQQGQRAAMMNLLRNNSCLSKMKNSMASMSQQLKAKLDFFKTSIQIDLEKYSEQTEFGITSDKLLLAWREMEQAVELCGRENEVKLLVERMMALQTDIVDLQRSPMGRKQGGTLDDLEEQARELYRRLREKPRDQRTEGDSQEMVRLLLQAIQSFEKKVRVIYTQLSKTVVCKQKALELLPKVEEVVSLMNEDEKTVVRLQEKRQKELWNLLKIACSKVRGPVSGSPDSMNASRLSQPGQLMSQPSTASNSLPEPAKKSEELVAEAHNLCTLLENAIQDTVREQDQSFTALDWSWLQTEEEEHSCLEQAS
UniProt Q9H422: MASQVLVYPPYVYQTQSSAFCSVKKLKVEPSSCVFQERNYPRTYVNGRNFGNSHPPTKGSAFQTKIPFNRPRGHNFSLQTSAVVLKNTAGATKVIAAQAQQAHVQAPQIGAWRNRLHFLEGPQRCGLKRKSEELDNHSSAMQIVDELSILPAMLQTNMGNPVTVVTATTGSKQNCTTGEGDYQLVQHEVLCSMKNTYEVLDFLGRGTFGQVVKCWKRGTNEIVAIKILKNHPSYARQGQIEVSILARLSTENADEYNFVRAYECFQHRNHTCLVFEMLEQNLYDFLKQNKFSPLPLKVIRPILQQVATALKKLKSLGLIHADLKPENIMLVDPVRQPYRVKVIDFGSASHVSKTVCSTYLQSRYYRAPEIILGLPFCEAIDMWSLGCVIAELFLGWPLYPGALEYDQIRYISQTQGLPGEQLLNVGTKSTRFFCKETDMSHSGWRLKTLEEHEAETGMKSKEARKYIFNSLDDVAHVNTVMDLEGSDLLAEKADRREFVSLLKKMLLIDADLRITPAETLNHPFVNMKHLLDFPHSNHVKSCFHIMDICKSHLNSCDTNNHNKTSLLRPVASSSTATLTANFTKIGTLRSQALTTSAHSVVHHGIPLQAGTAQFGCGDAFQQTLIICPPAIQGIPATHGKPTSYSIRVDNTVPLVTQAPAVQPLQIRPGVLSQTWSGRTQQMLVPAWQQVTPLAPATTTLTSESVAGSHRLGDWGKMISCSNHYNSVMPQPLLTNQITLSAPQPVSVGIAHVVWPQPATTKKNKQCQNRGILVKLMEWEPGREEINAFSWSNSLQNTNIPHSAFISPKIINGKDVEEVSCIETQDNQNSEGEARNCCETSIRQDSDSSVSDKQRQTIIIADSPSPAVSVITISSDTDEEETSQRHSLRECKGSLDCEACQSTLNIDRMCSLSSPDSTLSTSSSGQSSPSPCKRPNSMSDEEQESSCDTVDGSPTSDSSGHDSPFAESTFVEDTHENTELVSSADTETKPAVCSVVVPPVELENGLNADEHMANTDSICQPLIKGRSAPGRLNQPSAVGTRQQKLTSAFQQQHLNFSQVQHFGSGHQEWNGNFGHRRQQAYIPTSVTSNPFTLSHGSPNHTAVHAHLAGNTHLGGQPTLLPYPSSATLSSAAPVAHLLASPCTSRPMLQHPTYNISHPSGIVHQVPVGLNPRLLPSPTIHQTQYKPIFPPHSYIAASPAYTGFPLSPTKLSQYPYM
UniProt P78368: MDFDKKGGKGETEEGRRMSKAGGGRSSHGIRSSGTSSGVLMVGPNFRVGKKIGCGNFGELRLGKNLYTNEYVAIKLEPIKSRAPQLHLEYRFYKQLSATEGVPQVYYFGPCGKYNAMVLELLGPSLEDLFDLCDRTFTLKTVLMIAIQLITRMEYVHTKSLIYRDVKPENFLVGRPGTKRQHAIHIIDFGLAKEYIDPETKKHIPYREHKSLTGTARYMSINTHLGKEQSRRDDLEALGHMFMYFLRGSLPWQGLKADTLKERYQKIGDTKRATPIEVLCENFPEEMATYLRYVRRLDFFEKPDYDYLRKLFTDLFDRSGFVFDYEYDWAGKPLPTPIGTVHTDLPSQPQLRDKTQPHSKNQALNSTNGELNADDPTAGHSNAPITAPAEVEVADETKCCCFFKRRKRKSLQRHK
UniProt Q9P0L2: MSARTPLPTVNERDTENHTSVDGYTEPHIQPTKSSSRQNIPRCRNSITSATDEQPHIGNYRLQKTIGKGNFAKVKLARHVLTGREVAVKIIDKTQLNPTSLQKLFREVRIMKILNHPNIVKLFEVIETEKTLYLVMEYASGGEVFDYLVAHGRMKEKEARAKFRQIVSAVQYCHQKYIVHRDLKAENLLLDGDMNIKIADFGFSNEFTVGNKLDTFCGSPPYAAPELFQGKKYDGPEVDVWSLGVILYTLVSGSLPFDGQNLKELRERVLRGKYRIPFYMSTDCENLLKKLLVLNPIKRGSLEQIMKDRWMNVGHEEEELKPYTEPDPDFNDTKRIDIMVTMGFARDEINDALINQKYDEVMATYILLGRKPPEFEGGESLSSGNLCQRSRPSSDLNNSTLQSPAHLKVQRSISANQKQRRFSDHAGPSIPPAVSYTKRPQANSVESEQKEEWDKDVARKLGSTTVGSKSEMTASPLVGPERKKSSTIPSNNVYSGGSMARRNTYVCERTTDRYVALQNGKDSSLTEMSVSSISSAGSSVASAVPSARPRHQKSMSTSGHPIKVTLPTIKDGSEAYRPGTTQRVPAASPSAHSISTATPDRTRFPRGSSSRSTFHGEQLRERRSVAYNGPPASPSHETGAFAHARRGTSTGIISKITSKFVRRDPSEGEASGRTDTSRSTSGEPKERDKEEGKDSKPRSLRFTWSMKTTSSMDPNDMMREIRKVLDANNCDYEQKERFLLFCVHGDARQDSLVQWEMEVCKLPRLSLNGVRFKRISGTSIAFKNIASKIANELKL

266 human kinases [2] = biological target: T1, 266 human kinases (Homo sapiens, UniProt P52333); settings: JAK3(h); 100 μM
T1 sequence (P52333 1-1124): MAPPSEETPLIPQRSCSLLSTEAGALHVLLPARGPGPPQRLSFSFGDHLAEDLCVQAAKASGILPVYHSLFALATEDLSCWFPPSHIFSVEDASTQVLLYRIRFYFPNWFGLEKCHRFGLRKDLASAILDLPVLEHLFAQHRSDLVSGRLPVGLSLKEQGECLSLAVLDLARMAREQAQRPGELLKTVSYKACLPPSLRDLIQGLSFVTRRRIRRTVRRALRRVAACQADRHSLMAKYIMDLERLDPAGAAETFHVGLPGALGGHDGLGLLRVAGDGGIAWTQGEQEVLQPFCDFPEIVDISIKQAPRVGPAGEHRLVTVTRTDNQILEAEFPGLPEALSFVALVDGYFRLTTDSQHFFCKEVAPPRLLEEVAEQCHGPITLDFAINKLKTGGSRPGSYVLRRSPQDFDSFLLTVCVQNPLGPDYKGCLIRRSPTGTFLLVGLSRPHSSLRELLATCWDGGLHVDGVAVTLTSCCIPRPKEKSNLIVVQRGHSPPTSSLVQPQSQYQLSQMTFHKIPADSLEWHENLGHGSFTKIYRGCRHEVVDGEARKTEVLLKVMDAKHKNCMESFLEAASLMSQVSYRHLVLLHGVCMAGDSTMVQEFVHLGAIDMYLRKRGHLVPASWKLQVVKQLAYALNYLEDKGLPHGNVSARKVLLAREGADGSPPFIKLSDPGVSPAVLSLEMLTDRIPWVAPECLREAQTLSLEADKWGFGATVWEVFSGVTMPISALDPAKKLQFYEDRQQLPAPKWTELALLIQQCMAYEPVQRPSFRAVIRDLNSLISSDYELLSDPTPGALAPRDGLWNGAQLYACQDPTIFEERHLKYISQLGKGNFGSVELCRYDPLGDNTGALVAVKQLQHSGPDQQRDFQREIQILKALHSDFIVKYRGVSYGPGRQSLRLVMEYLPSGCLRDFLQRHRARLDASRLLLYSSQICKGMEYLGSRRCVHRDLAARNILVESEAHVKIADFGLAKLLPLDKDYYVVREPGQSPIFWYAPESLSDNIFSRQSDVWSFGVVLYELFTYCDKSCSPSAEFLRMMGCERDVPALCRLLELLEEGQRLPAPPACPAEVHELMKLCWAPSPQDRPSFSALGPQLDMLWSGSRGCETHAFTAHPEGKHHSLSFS
Summary of the method: as §1

266 human kinases [3] = biological target: 266 human kinases (Homo sapiens, UniProt P36888, D835Y); settings: Flt3(D835Y)(h); 100 μM
Summary of the method: as §1

266 human kinases [4] = biological target: 266 human kinases (Homo sapiens, UniProt O14920); settings: IKKβ(h); 100 μM
Summary of the method: as §1

266 human kinases [5] = biological target: T2, 266 human kinases (Homo sapiens, UniProt Q13188); settings: MST2(h); 100 μM
T2 sequence (Q13188 1-491): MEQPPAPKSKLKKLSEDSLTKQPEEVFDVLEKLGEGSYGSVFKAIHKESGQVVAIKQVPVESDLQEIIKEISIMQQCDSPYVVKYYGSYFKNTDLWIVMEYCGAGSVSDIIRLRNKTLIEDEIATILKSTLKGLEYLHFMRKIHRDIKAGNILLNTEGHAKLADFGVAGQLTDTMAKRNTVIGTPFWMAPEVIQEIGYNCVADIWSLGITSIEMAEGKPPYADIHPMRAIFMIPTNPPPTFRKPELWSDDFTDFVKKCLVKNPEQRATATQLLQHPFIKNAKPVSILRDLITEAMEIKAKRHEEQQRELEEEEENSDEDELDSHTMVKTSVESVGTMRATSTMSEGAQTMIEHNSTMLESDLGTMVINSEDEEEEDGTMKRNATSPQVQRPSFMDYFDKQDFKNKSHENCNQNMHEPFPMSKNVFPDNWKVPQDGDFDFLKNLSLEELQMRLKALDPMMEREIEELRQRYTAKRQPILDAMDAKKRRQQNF
Summary of the method: as §1

266 human kinases [6] = biological target: T3, 266 human kinases (Homo sapiens, UniProt Q9HBY8); settings: SGK2(h); 100 μM
T3 sequence (Q9HBY8 whole entry, looked up): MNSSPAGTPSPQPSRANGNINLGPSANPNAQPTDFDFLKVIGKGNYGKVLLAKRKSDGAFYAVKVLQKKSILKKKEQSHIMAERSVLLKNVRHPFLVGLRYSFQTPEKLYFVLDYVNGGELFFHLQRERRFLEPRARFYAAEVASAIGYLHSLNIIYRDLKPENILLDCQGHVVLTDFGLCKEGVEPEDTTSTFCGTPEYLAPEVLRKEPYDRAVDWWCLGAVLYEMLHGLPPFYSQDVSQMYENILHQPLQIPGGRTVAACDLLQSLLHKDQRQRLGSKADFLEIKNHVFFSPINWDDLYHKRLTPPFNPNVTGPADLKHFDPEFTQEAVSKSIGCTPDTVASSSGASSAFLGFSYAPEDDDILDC
Summary of the method: as §1

266 human kinases [7] = biological target: 266 human kinases (Homo sapiens, UniProt Q9H422); settings: HIPK3(h); 100 μM
Summary of the method: as §1

266 human kinases [8] = biological target: 266 human kinases (Homo sapiens, UniProt P78368); settings: CK1γ2(h); 100 μM
Summary of the method: as §1

266 human kinases [9] = biological target: 266 human kinases (Homo sapiens, UniProt Q9P0L2); settings: MARK1(h); 100 μM
Summary of the method: as §1

For “YARAAARQARAKALNRQLGVA (mammal) [MMI-0200]”, which “% activity” value (266 human kinases [1]) is on record?
The value was 119%.

And the “% activity” value (266 human kinases [2])?
Its value is 117%.

And the “% activity” value (266 human kinases [3])?
Its value is 115%.

And the “% activity” value (266 human kinases [4])?
The value was 109%.

What about the “% activity” value (266 human kinases [5]) of the same sequence?
Its value is 104%.

What about the “% activity” value (266 human kinases [6]) of the same sequence?
The value was 119%.

What about the “% activity” value (266 human kinases [7]) of the same sequence?
Its value is 105%.

And the “% activity” value (266 human kinases [8])?
The value was 104%.

And the “% activity” value (266 human kinases [9])?
The value was 102%.
